# From patent US20250304587A1, “WEE1 INHIBITOR, PREPARATION THEREFOR AND USE THEREOF” (JIANGSU TASLY DIYI PHARMACEUTICAL CO., LTD., priority 2022, published 2025)
# The chains behind the UniProt entries cited, without tags or fusion partners.
# UniProt P30291, whole entry: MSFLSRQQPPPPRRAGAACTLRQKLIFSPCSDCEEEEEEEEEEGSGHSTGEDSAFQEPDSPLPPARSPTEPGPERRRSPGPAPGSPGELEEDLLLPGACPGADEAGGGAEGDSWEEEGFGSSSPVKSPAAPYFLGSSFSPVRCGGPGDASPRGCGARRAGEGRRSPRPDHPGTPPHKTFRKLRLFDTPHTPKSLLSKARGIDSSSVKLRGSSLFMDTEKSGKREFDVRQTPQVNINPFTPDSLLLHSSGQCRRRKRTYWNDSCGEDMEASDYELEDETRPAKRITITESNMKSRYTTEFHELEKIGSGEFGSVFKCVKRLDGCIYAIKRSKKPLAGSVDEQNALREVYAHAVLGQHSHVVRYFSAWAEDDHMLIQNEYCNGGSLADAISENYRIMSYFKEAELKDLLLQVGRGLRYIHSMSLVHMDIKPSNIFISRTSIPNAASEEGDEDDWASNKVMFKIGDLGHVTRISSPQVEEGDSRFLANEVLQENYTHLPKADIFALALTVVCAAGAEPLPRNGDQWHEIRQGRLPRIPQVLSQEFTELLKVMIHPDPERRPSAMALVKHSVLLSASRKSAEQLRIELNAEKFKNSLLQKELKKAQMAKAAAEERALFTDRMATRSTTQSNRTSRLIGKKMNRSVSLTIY
# pIC50: −log10 of the molar value.
# Assays:
# Wee1 protein = Wee1 protein (Homo sapiens (Human), UniProt P30291); assay: TR-FRET binding of compound to Wee1 protein and Tracer 178; conditions: read-out: IC50, inhibitory activity against Wee1 kinase, Tracer 178
# BxPC3 cells = assay: Cell Titer-Glo anti-proliferation, BxPC3 cells; conditions: read-out: Anti-proliferative activity BxPC3 (IC50 class), 3 days
# HT-29 cells = assay: Cell Titer-Glo anti-proliferation, HT-29 cells; conditions: read-out: Anti-proliferative activity HT-29 (IC50 class), 3 days
# OVCAR-3 cells = assay: Cell Titer-Glo anti-proliferation, OVCAR-3 cells; conditions: read-out: Anti-proliferative activity OVCAR-3 (IC50 class), 3 days
# HUVEC cells = assay: Cell Titer-Glo anti-proliferation, normal cells HUVEC; conditions: read-out: IC50 HUVEC
# HK2 cells = assay: Cell Titer-Glo anti-proliferation, normal cells HK2; conditions: read-out: IC50 HK2
pIC50 (Wee1 protein),pIC50 (BxPC3 cells),pIC50 (HT-29 cells),pIC50 (OVCAR-3 cells),Structure (SMILES),pIC50 (HUVEC cells),pIC50 (HK2 cells)
8.00 to 8.30,6.00 to 7.00,6.00 to 7.00,6.00 to 7.00,C=CCn1c(=O)c2cnc(Nc3ccc(N4CC5CN(C)CC5C4)cc3)nc2n1-c1ccc2c(n1)C(O)(C(F)(F)F)C1(CC2)CC1 (stereo not shown),6.18,6.33
> 8.30,5.70 to 6.00,5.70 to 6.00,5.70 to 6.00,[2H]C1(O)c2nc(-n3c4nc(Nc5ccc(N6CCN(C)CC6)cc5)ncc4c(=O)n3CC=C)ccc2CC12CC2 (stereo not shown),–,–
